{"sequences": {"note": "Sequences of proteins named here, by UniProt entry; tags and fusion partners are left off. A change or cut given only in a name is not applied to a line headed by its entry.", "UniProt O60674": "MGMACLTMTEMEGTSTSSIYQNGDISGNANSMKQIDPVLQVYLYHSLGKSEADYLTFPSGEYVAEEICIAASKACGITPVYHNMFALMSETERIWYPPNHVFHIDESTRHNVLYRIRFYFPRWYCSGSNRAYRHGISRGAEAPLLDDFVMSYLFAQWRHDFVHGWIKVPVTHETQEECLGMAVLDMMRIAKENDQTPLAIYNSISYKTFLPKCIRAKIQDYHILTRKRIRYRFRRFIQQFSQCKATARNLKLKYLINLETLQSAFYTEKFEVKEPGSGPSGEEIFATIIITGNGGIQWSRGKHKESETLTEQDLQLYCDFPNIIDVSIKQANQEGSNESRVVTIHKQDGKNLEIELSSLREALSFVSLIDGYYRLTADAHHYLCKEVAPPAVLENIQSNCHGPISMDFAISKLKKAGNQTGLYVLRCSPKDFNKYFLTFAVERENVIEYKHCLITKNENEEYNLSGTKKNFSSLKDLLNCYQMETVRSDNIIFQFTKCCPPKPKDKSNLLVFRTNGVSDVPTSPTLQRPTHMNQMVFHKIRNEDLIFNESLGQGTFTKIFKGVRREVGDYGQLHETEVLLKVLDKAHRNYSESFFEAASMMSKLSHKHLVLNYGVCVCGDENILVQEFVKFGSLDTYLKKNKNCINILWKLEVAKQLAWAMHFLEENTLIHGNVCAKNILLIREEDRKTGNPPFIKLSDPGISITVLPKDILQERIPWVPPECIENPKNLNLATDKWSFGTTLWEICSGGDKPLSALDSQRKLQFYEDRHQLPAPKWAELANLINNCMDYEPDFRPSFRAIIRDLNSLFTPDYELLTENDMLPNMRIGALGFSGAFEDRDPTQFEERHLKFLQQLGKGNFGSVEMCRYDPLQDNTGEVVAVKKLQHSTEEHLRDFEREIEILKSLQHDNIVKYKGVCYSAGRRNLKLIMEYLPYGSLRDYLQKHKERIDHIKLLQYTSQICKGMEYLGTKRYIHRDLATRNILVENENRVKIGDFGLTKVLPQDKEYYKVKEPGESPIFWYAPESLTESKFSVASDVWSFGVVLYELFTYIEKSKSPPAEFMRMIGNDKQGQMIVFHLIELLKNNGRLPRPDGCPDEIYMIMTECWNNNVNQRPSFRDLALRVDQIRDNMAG"}, "source": "patent US20250115597A1", "about": "“TYK2 INHIBITORS AND COMPOSITIONS AND METHODS THEREOF” (LYNK PHARMACEUTICALS CO. LTD., priority 2021, published 2025)", "biological_target": "T1, JAK2 (Homo sapiens, UniProt O60674)", "T1 construct": "purchased Carna Biosciences", "experiment": "JAK2 kinase activity, microfluidic assay (Caliper EZ Reader II)", "format": "biochemical", "details": "JAK2 0.125 nM, 1 mM ATP", "procedure": "Testing for JAK1, JAK2 and TYK2 Kinase Activities\nJAK activity was determined in the reaction buffer 50 mM HEPES, 0.01% Brij35, 10 mM MgCl2, 2 mM DTT by a microfluidic assay. The phosphorylation of a FAM labeled peptide substrate was monitored in the Caliper EZ Reader II (Perkin Elmer). The assay condition for each batch of enzyme (Carna Biosciences) was optimized to obtain 10% conversion rate of peptide substrate.\nThe test compounds were dissolved in DMSO to a stock concentration of 10 mM. Three-fold serially diluted compounds with top concentration of 5 μM were pre-incubated with JAK1, JAK2 or TYK2 for 10 min at ambient temperature. The final DMSO concentration of assay mixture was 1%. […] The reaction was stopped by adding 50 mM EDTA.\nThe percent inhibition was calculated by the following formula:\n[formula] • wherein • Conversion %_max=the conversion rate in the positive well without addition of compound • Conversion %_sample=the conversion rate of test compounds • Conversion %_min=the conversion rate in the well without addition of enzyme\nThe dose-response (percent inhibition) curve was plotted and IC50 values were determined by GraphPad software.", "data": [{"smiles": "[2H]C([2H])([2H])NC(=O)c1nnc(NC(=O)C2CC2)cc1Nc1cccc(-c2ncn(C)n2)c1OC", "note": "[Example 41, 6-(Cyclopropanecarboxamido)-4-((2-methoxy-3-(1-methyl-1H-1,2,4-triazol-3-yl)phenyl)amino)-N-(methyl-d3)pyridazine-3-carboxamide]", "values": [{"measurement": "IC50", "result": 2480, "unit": "nM"}]}]}
